Sequences of proteins named here, by UniProt entry; tags and fusion partners are left off. A change or cut given only in a name is not applied to a line headed by its entry.
UniProt O15151: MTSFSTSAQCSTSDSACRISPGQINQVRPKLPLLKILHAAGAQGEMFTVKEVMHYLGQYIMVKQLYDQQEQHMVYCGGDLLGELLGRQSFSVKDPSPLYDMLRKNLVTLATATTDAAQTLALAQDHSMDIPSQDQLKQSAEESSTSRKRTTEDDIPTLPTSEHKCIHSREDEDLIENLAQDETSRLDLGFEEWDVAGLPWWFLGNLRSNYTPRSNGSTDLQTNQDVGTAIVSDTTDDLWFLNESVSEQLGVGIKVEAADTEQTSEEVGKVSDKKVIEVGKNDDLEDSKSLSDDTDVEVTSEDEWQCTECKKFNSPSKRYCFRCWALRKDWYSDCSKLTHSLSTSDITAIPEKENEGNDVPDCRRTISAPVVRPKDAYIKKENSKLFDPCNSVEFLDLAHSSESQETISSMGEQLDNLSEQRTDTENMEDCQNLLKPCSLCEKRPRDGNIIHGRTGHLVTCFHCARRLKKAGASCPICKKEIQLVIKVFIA
UniProt Q00987, whole entry, looked up: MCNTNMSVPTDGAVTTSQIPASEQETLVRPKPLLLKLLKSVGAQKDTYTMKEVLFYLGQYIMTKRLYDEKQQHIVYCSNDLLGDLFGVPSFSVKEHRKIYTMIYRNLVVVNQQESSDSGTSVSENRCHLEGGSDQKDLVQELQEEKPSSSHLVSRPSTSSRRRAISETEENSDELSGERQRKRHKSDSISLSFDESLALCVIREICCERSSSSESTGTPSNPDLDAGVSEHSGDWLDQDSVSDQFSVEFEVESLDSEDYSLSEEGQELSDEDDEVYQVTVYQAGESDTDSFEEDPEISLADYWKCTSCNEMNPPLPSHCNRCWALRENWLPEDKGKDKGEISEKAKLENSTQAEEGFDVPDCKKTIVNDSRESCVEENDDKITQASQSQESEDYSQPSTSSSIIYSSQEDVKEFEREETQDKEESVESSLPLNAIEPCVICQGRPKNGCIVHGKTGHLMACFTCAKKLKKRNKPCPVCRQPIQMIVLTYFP

This is a selection; strong and weak results do not stand in their true shares. The source made the active and inactive calls. Rule as the data show it: active = inhibition above about 40%; inactive = the rest.
What follows are compounds tested against Protein Mdm4 (Homo sapiens) + E3 ubiquitin-protein ligase Mdm2 (Homo sapiens) (UniProt O15151+Q00987) (assay: inhibition of human Mdm2/MdmX pairing – luminescence, single concentration, confirmation (AID 489028)). Conditions: Mdm2-MdmX binding, luminescent assay; at 8 µM; active compounds read high.
In the case of `C[N+]1=C2C=CC=CC=C2SC12C([N+](=O)[O-])=CC([N+](=O)[O-])=C[C-]2[N+](=O)[O-]` (stereo not drawn), the inhibition is reported as active: 52.5%.
`CCC1=CC2Cc3nc4ccc(Cl)cc4c(N)c3C(C1)C2` (stereo not drawn) was tested, and the inhibition was active: 54.4%.
For `CN(C)C(=O)c1cc([N+](=O)[O-])cc2c1-c1c(cc([N+](=O)[O-])cc1[N+](=O)[O-])C2=O`, the inhibition was active: 54.8%.
